Data from US4568693A, “N-Naphthoylglycine derivatives” (Ayerst, McKenna & Harrison, Inc., priority 1981, dated 1986).

Target: T1, aldose reductase (Bos taurus, UniProt P16116)
T1 construct: the preparation of the enzyme from bovine lens; from tissue; host or cells: bovine lens
Experiment: in vitro aldose reductase inhibition (modified Hayman and Kinoshita procedure)
Format: biochemical, bovine
Source text: In the present case the procedure of Hayman and Kinoshita is modified in that the final chromatography step is omitted in the preparation of the enzyme from bovine lens.

COc1ccc2c(C(=S)N(C)CC(=O)O)cccc2c1C(F)(F)F [Example 52, N-[[5-(trifluoromethyl)-6-methoxy-1-naphthalenyl]thioxomethyl]-N-methylglycine]
inhibition at 10 µM (read-out: % Inhibition at Different Molar Concentration (in vitro), 10^-5): 98%
inhibition at 1 µM (read-out: % Inhibition at Different Molar Concentration (in vitro), 10^-6): 94%
inhibition at 0.1 µM (read-out: % Inhibition at Different Molar Concentration (in vitro), 10^-7): 65%
